# Results as given in patent US20200009275A1, “PIGMENT-COUPLED MANNOSYL SERUM ALBUMIN COMPLEX AND LYMPH NODE-PROBING COMPOSITION COMPRISING SAME” (priority 2017, published 2020).
# Experiment: Absorption peak and molecular extinction coefficient of pigment-coupled MSA
# Type: physicochemical
# Method: The pigment-coupled MSA solution was loaded in a 96-well plate, which was scanned with visible light ranging between 350 nm and 850 nm to measure the absorbance at the peak of absorption spectrum using Varioskan Flash (Thermo Fisher Scientific Inc., Finland) spectrometer. The molecular extinction coefficient was measured by calculating the absorbance per 1 cm length according to Beer-Lambert law.
substance,measurement,setting,value
brilliant blue R,ε (molecular extinction coefficient),"at absorption peak, per 1 cm, Beer-Lambert law",54444
same,Wavelength (absorption peak),scan 350 nm to 850 nm,590 nm
